Results: patent US9962369B2, “Methods and compositions for transdermal delivery” (SPRAYABLE HOLDINGS, INC., priority 2014, dated 2018)

Assay: Transdermal delivery of melatonin: plasma level of melatonin after applying composition to skin of a subject
Conditions: human, topical, 3 mg, Leucine methyl ester hydrochloride 385.28 mM, 0.60 mL applied to skin

Work on `COc1ccc2[nH]cc(CCNC(C)=O)c2c1` [Melatonin] yielded a concentration at 0 h (0 hr after transdermal administration) of 0 ng/mL, a concentration at 1 h (1 hr after transdermal administration) of 1.5 ng/mL and a concentration at 2 h (2 hr after transdermal administration) of 1.7 ng/mL. For the same molecule, the concentration at 4 h (4 hr after transdermal administration) was 1.8 ng/mL and the concentration at 8 h (8 hr after transdermal administration) was 1.8 ng/mL.
